Paper PMC5189922 (Journal of medicinal chemistry, 2016)

Chains of the proteins cited; added tags and fusions are not shown.
UniProt P35372, whole entry: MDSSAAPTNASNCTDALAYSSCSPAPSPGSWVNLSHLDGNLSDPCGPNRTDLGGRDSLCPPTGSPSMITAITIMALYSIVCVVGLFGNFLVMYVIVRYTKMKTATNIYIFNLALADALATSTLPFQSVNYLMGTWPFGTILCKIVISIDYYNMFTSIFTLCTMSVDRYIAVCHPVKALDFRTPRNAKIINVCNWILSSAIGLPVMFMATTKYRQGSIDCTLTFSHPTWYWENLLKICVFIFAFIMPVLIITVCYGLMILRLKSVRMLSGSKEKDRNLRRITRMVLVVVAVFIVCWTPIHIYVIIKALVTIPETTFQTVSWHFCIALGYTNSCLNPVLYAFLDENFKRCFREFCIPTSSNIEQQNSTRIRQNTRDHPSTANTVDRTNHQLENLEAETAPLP

Molecular target: human µ-opioid receptor (Homo sapiens, UniProt P35372)
Format: cell-based
Details: read-out: EC50 ± SD µ

## COC(=O)[C@@H]1C[C@@H](OC(C)=O)C(=O)[C@H]2[C@@]1(C)CC[C@H]1C(=O)O[C@H](c3ccoc3)C[C@]21C [Compound 1c]
  pEC50: < 5.00

pEC50: −log10 of the molar value.
